Assay results from patent US7541342B2, “Use of PKC-activating compounds as cardioprotectants and as apoptosis-inducing anti-tumor agents” (University of Tennessee Research Foundation, priority 2005, dated 2009).

Columns and labels:
[1] = system: Bcr-Abl; experiment: Bcr-Abl expression immunoblot in K562 cells; conditions: 72 hrs; imatinib 10 μM, AD 198 or AD 288 0.25 μM
[2] = system: K562 cells; experiment: Cytotoxicity analysis in K562 cells; conditions: 0.25 μM alone, 72 hours

In the case of `CCCCC(=O)OCC(=O)[C@]1(O)Cc2c(O)c3c(c(O)c2[C@@H](O[C@H]2C[C@H](NCc4ccccc4)[C@H](O)[C@H](C)O2)C1)C(=O)c1c(OC)cccc1C3=O` [AD 198, N-benzyladriamycin-14-valerate], the “Bcr-Abl expression, single agent” value [1] is reported as “slight decrease” and the “loss of cells, single agent” value [2] is reported as “only marginal loss of cells”.
